The results in this text go back to US4382892A, “Benzoxazine derivatives” (Daiichi Seiyaku Co., Ltd., priority 1980, dated 1983).

A short description of this data set: in vivo. Particulars: mouse, iv.

SMILES strings stand for the structures.

`CCn1cc(C(=O)O)c(=O)c2cnc(N3CCNCC3)nc21` [PPA, 8-ethyl-5,8-dihydro-5-oxo-2-(1-piperazinyl)-pyrido[2,3-d]pyrimidine-6-carboxylic acid, reference compound] displayed an LD50 of 610 to 649 mg/kg.
